Data as given in patent US5599953A, “C-glycoside analogues of N-(4-hydroxyphenyl)retinamide-O-glucuronide” (The Ohio State Research Foundation, priority 1995, dated 1997).

Sequences of proteins named here, by UniProt entry; tags and fusion partners are left off. Residues count along the entry.
UniProt P22605, 1-448 isoform P22605-3: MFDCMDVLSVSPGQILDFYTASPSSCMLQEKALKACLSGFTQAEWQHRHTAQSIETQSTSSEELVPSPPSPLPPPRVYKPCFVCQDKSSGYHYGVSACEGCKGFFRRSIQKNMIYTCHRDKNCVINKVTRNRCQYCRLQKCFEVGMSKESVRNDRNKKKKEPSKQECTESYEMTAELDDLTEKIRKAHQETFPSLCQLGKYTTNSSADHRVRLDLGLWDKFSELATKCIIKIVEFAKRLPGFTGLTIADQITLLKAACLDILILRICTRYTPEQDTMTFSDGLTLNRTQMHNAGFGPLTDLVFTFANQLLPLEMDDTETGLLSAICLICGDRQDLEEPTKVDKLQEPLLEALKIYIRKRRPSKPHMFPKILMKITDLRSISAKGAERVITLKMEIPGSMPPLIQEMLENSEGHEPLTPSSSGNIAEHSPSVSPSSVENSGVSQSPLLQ

Molecular target: T1, mRARβ (Mus musculus, UniProt P22605)
T1 construct: made in house; host or cells: Spodoptera frugiperda insect cells, baculovirus (whole cell extract)
Test: Drug competition with (3H)retinoic acid binding, mRARβ
Details: read-out: percent reduction of binding of the (3H)retinoic acid, mRARβ

| SMILES | inhibition at 1 µM |
| --- | --- |
| CC1=C(/C=C/C(C)=C/C=C/C(C)=C/C(=O)O)C(C)(C)CCC1 [retinoic acid, reference compound] | 100% |
| CC1=C(/C=C/C(C)=C/C=C/C(C)=C\C(=O)O)C(C)(C)CCC1 [13-cis-retinoic acid, reference compound] | 13% |
